Experimental data published in ChEMBL document CHEMBL2163249, “Exploration of natural compounds as sources of new bifunctional scaffolds targeting cholinesterases and beta amyloid aggregation: the case of chelerythrine” (Bioorg Med Chem, 2012).

Test: Selectivity ratio of IC50 for human BChE to IC50 for horse BChE

| Structure (SMILES) | Ratio IC50 |
| --- | --- |
| COc1cc2c3cc1Oc1c(OC)c(OC)cc4c1[C@@H](Cc1ccc(OC(=O)c5ccc([N+](=O)[O-])cc5)c(c1)Oc1ccc(cc1)C[C@@H]3N(C)CC2)N(C)CC4 [E6 BERBAMINE] | 2 |
| C[C@@H]1CC[C@H]2[C@H](C)[C@H]3CC[C@@]4(O)[C@@H]5CC(=O)[C@H]6CC(=O)CC[C@]6(C)[C@H]5C[C@H]4[C@@H]3CN2C1 [SEVEDINDIONE] | 10 |
